For one compound, IC50 results are on record in ChEMBL document CHEMBL1127818, “Identification of L-tryptophan derivatives with potent and selective antagonist activity at the NK1 receptor” (J Med Chem, 1994).

Amino acid sequences for entries named in this document (tags omitted).
UniProt P25103, whole entry: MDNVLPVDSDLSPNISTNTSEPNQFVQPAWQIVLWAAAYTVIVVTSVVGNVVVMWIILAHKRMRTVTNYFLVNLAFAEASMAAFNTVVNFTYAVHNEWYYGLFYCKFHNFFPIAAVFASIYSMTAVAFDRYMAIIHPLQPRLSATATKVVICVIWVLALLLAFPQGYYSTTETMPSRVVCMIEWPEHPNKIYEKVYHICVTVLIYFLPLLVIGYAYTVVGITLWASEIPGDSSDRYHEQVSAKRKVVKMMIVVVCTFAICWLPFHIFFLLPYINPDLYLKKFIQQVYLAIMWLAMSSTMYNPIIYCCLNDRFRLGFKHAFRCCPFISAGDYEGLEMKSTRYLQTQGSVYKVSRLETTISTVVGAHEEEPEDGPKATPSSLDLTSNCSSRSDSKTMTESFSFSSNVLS

Structures are written as SMILES.

As a reminder, the IC50 is the concentration needed to halve the response being measured.

The assay concerns the target Substance-P receptor (Homo sapiens, UniProt P25103). Kind of assay: Binding affinity towards cloned neurokinin 1 receptor, based on the displacement of [125I]-labeled substance P.

Take `O=C(N[C@@H](Cc1c[nH]c2ccccc12)C(=O)OCc1ccccc1Cl)c1ccccc1`: the IC50 was found to be 0.6 µM.
